Data on one compound can be found in ChEMBL document CHEMBL2157861, “Discovery of 4-morpholino-pyrimidin-6-one and 4-morpholino-pyrimidin-2-one-containing Phosphoinositide 3-kinase (PI3K) p110β isoform inhibitors through structure-based fragment optimisation” (Bioorg Med Chem Lett, 2012).

Chains of the proteins cited; added tags and fusions are not shown. Lines headed by an entry give the natural chain unless they say otherwise; changes in a name come on top.
UniProt P42338: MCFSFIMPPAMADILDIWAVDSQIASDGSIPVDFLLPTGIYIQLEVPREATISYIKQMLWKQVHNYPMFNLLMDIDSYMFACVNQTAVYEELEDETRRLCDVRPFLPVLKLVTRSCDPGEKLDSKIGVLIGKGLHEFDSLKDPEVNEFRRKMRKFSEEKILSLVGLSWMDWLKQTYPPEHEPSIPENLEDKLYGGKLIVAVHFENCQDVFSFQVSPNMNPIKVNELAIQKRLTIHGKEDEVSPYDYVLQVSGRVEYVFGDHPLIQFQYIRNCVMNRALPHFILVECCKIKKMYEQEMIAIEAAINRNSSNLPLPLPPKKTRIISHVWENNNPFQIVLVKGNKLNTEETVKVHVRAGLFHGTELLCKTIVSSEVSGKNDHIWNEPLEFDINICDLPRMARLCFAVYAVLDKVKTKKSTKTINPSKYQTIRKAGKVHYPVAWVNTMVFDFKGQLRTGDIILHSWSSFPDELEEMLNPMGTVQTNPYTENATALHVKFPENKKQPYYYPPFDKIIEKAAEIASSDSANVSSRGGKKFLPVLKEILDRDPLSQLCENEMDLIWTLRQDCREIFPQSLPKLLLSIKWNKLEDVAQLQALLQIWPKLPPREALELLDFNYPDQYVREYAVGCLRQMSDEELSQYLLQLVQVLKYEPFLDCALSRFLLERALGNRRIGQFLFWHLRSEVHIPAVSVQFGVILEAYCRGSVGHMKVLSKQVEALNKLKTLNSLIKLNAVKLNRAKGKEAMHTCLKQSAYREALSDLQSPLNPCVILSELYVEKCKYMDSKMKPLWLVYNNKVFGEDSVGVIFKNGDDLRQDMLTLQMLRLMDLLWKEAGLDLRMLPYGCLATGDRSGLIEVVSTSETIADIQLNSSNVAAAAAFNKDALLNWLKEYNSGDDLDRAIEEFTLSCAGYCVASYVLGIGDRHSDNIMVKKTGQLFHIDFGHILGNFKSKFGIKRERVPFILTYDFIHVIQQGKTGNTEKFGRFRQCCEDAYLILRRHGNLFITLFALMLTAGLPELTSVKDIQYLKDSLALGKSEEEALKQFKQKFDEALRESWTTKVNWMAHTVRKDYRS

This assay deals with Phosphatidylinositol 4,5-bisphosphate 3-kinase catalytic subunit beta isoform (Homo sapiens, UniProt P42338). In words: Inhibition of human recombinant His6-tagged PI3K p110beta expressed in baculovirus using DiC8-PI(4,5)P2 as substrate after 20 mins by AlphaScreen assay. The gist of the method: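 Values are the mean of at least two experiments. Experimental error was within 20% of the value.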
For orientation: In Alpha technology, singlet oxygen from a donor bead excites a nearby acceptor bead.

Consider `Cc1cc(C(C)Nc2ccccc2)c2nc(N3CCOCC3)cc(=O)n2c1` (stereo unspecified), for which the IC50 turned out to be 49 nM.

In general, IC50 refers to the point on the concentration scale where inhibition reaches its midpoint.
